# Ab-91 heavy chain CDR variants: yeast mating affinities

Target peptide (SARS-CoV-2 spike, HR2 region): PDVDLGDISGINAS

Parent scFv Ab-91: VL joined to VH by a 15-residue (Gly4Ser)3 linker. Changes lie in the heavy chain CDRs alone.
VL: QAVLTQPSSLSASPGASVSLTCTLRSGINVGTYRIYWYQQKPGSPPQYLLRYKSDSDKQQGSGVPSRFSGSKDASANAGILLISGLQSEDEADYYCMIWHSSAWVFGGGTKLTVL
VH: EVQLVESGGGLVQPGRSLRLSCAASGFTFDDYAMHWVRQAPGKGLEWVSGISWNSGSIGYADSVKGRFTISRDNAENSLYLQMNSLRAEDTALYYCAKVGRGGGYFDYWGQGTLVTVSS

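In library AAYL51, one, two or three CDR residues were substituted; doubles and triples were drawn at random. In AlphaSeq, yeast of one mating type display the scFv and yeast of the other type display the target. After mating in shaken culture at 30 °C for 16 h, diploids were selected and their barcode pairs sequenced. Read counts were normalised to the haploid input and turned into Kd by a linear fit to BCL2-family pairs of known affinity, for each replicate. Each pool was mated in three replicate cultures.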

Each variant is given by its three heavy chain CDRs, as the data file delimits them; those of the parent are GFTFDDYAMH, GISWNSGSIGYADSVK, VGRGGGYFDY.
This list gathers variants with a substitution at I58 (VH, numbered from residue 1).
Values are apparent Kd, the geometric mean of the replicates that gave a signal; lower means stronger binding.
An entry "nd" has no value in the source: the pair was not observed among the diploids in any replicate. This suggests poor binding but is not conclusive.

The variant GFTFDIYAMH / GISWNSGSEGYADSVK / VGRGWGYFDY gave nd (0 of 3 replicates).
The variant GLTFDDYAMH / GISWNSGSMGYAPSVK / VGRGGGYFDY gave 270 µM (2 of 3 replicates).
The variant GFTFDDYAMH / GYSWNSGSRGYADHVK / VGRGGGYFDY gave nd (0 of 3 replicates).
The variant GFTFDDIAMH / GISWNSGSHQYADSVK / VGRGGGYFDY gave nd (0 of 3 replicates).
The variant GFTFDDYAMH / GISWNSGSCGYADSVK / VGRGGQTFDY gave 240 nM (3 of 3 replicates).
The variant GFTFDDYAMY / GISWNSGSCGYADSVC / VGRGGGYFDY gave nd (0 of 3 replicates).
The variant GFTFDDYAMH / GQSWNSGSCGYADSVK / VGRGGGYFDI gave 24 µM (1 of 3 replicates).
The variant GFTFDDWAMH / GISWNSGSFGYADSVK / VGRGGGYPDY gave nd (0 of 3 replicates).
The variant GFTFDDYRMH / QISWNSGSAGYADSVK / VGRGGGYFDY gave nd (0 of 3 replicates).
The variant GFTFRDYAMH / GISWNSGSDGYADSVK / VGRGGGYFDY gave 1.4 µM (3 of 3 replicates).
The variant GGTFDDYAMH / GISWNSGSGPYADSVK / VGRGGGYFDY gave 27 µM (1 of 3 replicates).
The variant GFTFDDYAMH / GISWNSGSQGYADSVK / VGRGGGYFDY gave 31 nM (3 of 3 replicates).
The variant GFTFDDYAMH / GISWNSISSGYADSVK / VHRGGGYFDY gave nd (0 of 3 replicates).
The variant GFTFDDYAMH / GISWNSGSRGYADSQK / VGRGGGYFDA gave 58 µM (2 of 3 replicates).
The variant GFTFDDYHMH / GISSNSGSFGYADSVK / VGRGGGYFDY gave nd (0 of 3 replicates).
The variant GFTFDDYAMH / GISWNSGSSPYADSVK / VGCGGGYFDY gave 93 µM (3 of 3 replicates).
The variant GFTFWDYAMH / GIAWNSGSTGYADSVK / VGRGGGYFDY gave 36 nM (3 of 3 replicates).
The variant NFTFDDYAMH / GISWNWGSWGYADSVK / VGRGGGYFDY gave nd (0 of 3 replicates).
The variant GFTFDDYAMH / GISWNSGSFGYASSVK / VGRCGGYFDY gave 980 nM (3 of 3 replicates).
The variant GFTQDDYAMH / GISWNSGSMGYADSVK / VGRGGGYFDW gave 23 µM (1 of 3 replicates).
The variant GFTFDDYAMH / GYSWNSGSEGYADSVK / VGRGQGYFDY gave 6.7 µM (1 of 3 replicates).
The variant GFTYDDYAMH / GISWNSGSCGNADSVK / VGRGGGYFDY gave nd (0 of 3 replicates).
The variant GFTFDDYAMH / GISWNSGSDGYPDSVK / VGRGGGYFDD gave 70 µM (2 of 3 replicates).
The variant CFTFDDYAMH / GISWNSGSKGYADSVK / VGRIGGYFDY gave nd (0 of 3 replicates).
The variant VFTFDDYAMH / GISWNSGSHGYADSKK / VGRGGGYFDY gave 100 µM (3 of 3 replicates).
The variant GFQFDDYAMH / GISWNSLSPGYADSVK / VGRGGGYFDY gave 720 nM (1 of 3 replicates).
The variant GFHFDDYAMH / GISVNSGSPGYADSVK / VGRGGGYFDY gave 4.2 µM (3 of 3 replicates).
The variant GFTFDDYAMH / GPSWNSGSLGYADSVK / VGRVGGYFDY gave 86 µM (1 of 3 replicates).
The variant GFTFDDYQMH / GISWNSGSRGYADSVT / VGRGGGYFDY gave 100 µM (3 of 3 replicates).
The variant GFTFDDYAMH / GISWNSGSHGYADSVK / VGRGGGGFDV gave 210 nM (3 of 3 replicates).

Extract of 5 entries:

CDR-H1,CDR-H2,CDR-H3,apparent Kd,replicates with signal
GFTFRDYAMH,GISWNSGSDGYADSVK,VGRGGGYFDY,1.4 µM,3 of 3
VFTFDDYAMH,GISWNSGSHGYADSKK,VGRGGGYFDY,100 µM,3 of 3
GFTFDDYAMH,GYSWNSGSRGYADHVK,VGRGGGYFDY,nd,0 of 3
GFTYDDYAMH,GISWNSGSCGNADSVK,VGRGGGYFDY,nd,0 of 3
GFTFWDYAMH,GIAWNSGSTGYADSVK,VGRGGGYFDY,36 nM,3 of 3

Background: pairings of library AAYL51 with three empty control strains gave a value in 21% of cases (median 34 µM, 5th percentile 1.8 µM). Values in that range, when seen in few replicates, are hard to tell from nonspecific mating.
For reference, the parent read 72 nM as the reference entry and 7.5 nM as a member of this library.

The measurements come from Engelhart et al. 2022 (doi:10.1038/s41597-022-01779-4) through the FLAb antibody collection.